Earlier results as cited in article PMC4145829 (Drug Design, Development and Therapy, 2014).

Tested on: VEGFR
Details: read-out: VEGFR inhibition IC50; biochemical assays; cited from earlier work

For `CNC(=O)c1cc(Oc2ccc(NC(=O)Nc3ccc(Cl)c(C(F)(F)F)c3)cc2)ccn1` [Sorafenib], the IC50 is given as 26 to 100 nM.
